Test results as given in US4782016A (Eastman Kodak Company, priority 1985, dated 1988).
Like-named read-outs stand apart in the source and are kept apart here.

Amino acid sequences for entries named in this document (tags omitted). Residues count along the entry.
UniProt P09487, 18-502 limits assumed: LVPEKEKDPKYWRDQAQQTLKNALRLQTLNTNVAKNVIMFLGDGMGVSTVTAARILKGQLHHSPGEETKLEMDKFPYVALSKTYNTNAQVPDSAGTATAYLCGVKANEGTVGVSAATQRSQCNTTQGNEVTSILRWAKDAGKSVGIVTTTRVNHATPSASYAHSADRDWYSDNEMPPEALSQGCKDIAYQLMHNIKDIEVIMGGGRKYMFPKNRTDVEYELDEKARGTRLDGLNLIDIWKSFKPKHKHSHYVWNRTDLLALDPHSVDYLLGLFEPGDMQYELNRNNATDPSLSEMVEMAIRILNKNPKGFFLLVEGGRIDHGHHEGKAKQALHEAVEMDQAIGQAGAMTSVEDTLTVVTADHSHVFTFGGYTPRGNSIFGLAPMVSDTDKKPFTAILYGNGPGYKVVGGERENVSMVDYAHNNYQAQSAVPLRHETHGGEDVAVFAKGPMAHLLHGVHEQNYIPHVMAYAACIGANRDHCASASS
UniProt P09487, 18-499 limits assumed: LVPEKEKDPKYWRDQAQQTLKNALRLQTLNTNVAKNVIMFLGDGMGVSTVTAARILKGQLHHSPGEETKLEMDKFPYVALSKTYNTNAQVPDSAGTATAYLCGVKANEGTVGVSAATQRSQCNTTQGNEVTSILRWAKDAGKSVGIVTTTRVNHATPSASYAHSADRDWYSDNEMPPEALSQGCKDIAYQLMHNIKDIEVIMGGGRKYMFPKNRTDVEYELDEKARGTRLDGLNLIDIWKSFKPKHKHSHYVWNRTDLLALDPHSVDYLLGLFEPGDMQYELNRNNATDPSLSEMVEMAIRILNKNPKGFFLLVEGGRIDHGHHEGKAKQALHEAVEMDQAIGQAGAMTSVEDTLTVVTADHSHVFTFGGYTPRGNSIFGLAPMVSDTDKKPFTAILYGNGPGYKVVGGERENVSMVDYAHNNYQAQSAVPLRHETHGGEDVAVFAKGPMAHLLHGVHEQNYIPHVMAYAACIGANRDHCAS

Legend:
[1] = target: T1, beef liver alkaline phosphatase (Bos taurus, UniProt P09487); details: human serum test samples 1-10 (one per line of Table II); pH 8, 37° C.
[2] = patients; asthma and pulmonary diseases; cited from earlier work
[3] = tested on: beef liver alkaline phosphatase; details: theophylline 20 μg/ml
[4] = target: T1, beef liver alkaline phosphatase; details: theophylline 20 μg/ml, human ALP 0 I.U./l
[5] = target: T1, beef liver alkaline phosphatase; details: pH 8, 37° C.
[6] = theophylline 0.28 mg/dl calibrator
[7] = theophylline 0.56 mg/dl calibrator
[8] = theophylline 2.25 mg/dl calibrator
[9] = theophylline 4.5 mg/dl calibrator

## Cn1c(=O)c2[nH]cnc2n(C)c1=O [Theophylline, theophylline]
[1]
  % Inhibition: 0%
[2]
  therapeutic range of use: 1 to 2 mg/dL
[3]; human ALP 1000 I.U./l
  O.D./min. at pH 8: 0.50 O.D./min.
  O.D./min. at pH 9.5: 0.98 O.D./min.
[3]; human ALP 1000 vs 0 I.U./l
  % Interference by human ALP at pH 8: 4%
  % Interference by human ALP at pH 9.5: 29%
[4]
  O.D./min. at pH 8: 0.48 O.D./min.
  O.D./min. at pH 9.5: 0.76 O.D./min.
[5]; [6]
  % Inhibition: 5.6%
  Absorbance (402.5 nm): 0.135
[5]; [7]
  % Inhibition: 12.6%
  Absorbance (402.5 nm): 0.125
[5]; [8]
  % Inhibition: 30.1%
  Absorbance (402.5 nm): 0.100
[5]; [9]
  % Inhibition: 42.0%
  Absorbance (402.5 nm): 0.083
